{
  "source": "paper PMC3412545",
  "biological_target": "Myc-tagged Coro1B-S2D (human) (UniProt Q9BR76)",
  "assay": "co-IP",
  "data": [
    {"substance": "actin-related protein 2/3 complex subunit 2 (from UniProt P85970 1-300) (natural protein)", "values": [
      {"measurement": "percent less co-immunoprecipitation than with S2A", "value": 48, "unit": "%"}
    ]}
  ]
}
